Patent US20020044943A1, “MUC-1 as an immunosuppressive therapeutic agent for the treatment of inflammatory and autoimmune conditions” (priority 1997, published 2002)

Test system: Purified T cells
Experiment: T cell proliferation assay (allo MLR, 3H-thymidine incorporation)
Type: cell-based, human
Settings: 50 U/ml IL-2 or 1 ug/ml anti-CD28 Mab
Experimental: Enriched T cell populations were purified from buffy coats obtained from normal red cross donors using nylon wool columns by previously reported procedures. See, e.g., Agrawal et al., J. Immunol. 157:2089-95 (1996) and Agrawal et al., J. Immunol. 157:3229-34 (1996). For the allo MLR, mitomycin C treated allogeneic PBLs were cocultured with purified T cells in the presence or absence of affinity purified MUC-1 mucin or control OSM. In most of the experiments, the T cells were cultured 6-7 days in AIM V medium in the absence or presence of MUC-1, MUC-1 derivative or OSM at the indicated concentration. After this time, the T cells were harvested, washed and cultured as indicated.
Purified T cells (10^6/ml) were cultured in AIM V medium with allo PBLs in the absence or presence of MUC-1, MUC-1 derivative or OSM 10 ug/ml for 6-7 days. T cells were harvested and plated in 96 well flat bottom plates at 10^5/well with allo PBLs (10^5/well), in the presence or absence of affinity purified MUC-1, MUC-1 derivative or OSM. […] The cells were harvested on the fifth day and ^3H-thymidine incorporation was measured by liquid scintillation.
Synthetic peptides, as described in Example 8, corresponding to 3, 4, 5 or 6 MUC-1 repeats, were added at 10 ug/ml to allo cultures and T cell proliferation was measured at 14 days from the start of culture. […]

Question: Which “reversal of mucin-mediated inhibition of T cell proliferation” value does the source give for “IL-2: IL-2 added at 50 U/ml to control cultures [reference compound]” here?
Answer: reversed
